ChEMBL document CHEMBL1133858, “BMS-196085: a potent and selective full agonist of the human beta(3) adrenergic receptor” (Bioorg Med Chem Lett, 2001)

Assays:
ADRB2+ADRB3 (+) = assay: Tested for binding selectivity to beta3 adrenoceptor versus beta2 adrenoceptor
ADRB1+ADRB3 (+) = assay: Tested for binding selectivity to beta3 adrenoceptor versus beta-1 adrenoceptor

Row | SMILES | Selectivity ratio (ADRB2+ADRB3 (+)) | Selectivity ratio (ADRB1+ADRB3 (+))
1 | Cc1cc([C@@H](Cc2ccccc2)NC[C@H](O)c2ccc(O)c(NS(C)(=O)=O)c2)ccc1OC(F)F | 0.6 | 6
2 | CS(=O)(=O)Nc1cc([C@@H](O)CN[C@H](Cc2ccccc2)c2ccc(C(N)=O)cc2)ccc1O | 8 | 90
3 | COc1ccc([C@@H](Cc2ccccc2)NC[C@H](O)c2ccc(O)c(NS(C)(=O)=O)c2)c(OC)n1 | 13 | 61
4 | CS(=O)(=O)Nc1cc([C@@H](O)CNC(Cc2ccccc2)c2ccc(OCc3ccccc3)cc2)ccc1O (some centres not stated) | 2 | 58
5 | CS(=O)(=O)Nc1cc(C(O)CNC(Cc2ccccc2)c2ccc(F)cc2)ccc1O (configuration not stated) | 1 | 11
6 | COC(=O)c1ccc([C@@H](Cc2ccccc2)NC[C@H](O)c2ccc(O)c(NS(C)(=O)=O)c2)cc1 | 5 | 42
